# scFv variants of Ab-14 (light chain) against a SARS-CoV-2 spike peptide

The measurements come from Engelhart et al. 2022 (doi:10.1038/s41597-022-01779-4) through the FLAb antibody collection.

Antigen: PDVDLGDISGINAS, a 14-residue peptide of the SARS-CoV-2 spike HR2 region.

Parent scFv Ab-14: VH joined to VL by three GGGGS repeats. Changes lie in the light chain CDRs alone.
VH: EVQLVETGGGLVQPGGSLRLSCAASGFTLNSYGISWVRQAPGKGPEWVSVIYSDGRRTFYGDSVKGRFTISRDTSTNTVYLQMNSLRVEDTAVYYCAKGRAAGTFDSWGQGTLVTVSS
VL: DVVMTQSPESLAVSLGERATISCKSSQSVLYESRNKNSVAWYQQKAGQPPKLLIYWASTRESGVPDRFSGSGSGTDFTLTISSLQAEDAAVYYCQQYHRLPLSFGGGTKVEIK

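Phage display of a naive human antibody library on the peptide gave the parent. Variants in AAYL50 differ from the parent at up to three CDR positions; double and triple changes were sampled at random. The scFvs were displayed on barcoded MATa yeast, the peptide on MATalpha yeast. Pairs that bind mate more often; barcode pairs of the diploids are counted by sequencing. Each replicate has its own calibration line, from reference interactions of the BCL2 family. There are three technical replicates.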

The parent's light chain CDRs are KSSQSVLYESRNKNSVA, WASTRES, QQYHRLPLS; each variant's own CDRs replace them letter for letter. Values are log10 of the apparent Kd in nM; lower means stronger binding. An entry "ND" has no value in the source: the pair was not observed among the diploids in that replicate. This suggests poor binding but is not conclusive. Parent in this assay: reference entry 0.65, copy in this library 1.68. Empty control strains, which show no peptide, gave a signal in 18% of pairings with library AAYL50; the median was 4.19 and 95% of these signals were weaker than 2.99. No background was subtracted. Also given: how often the same scFv was detected with the empty control strains, with their mean in brackets.

CDR-L1 | CDR-L2 | CDR-L3 | log10 Kd (nM) by replicate | signal with controls
KSSQSVQVESRNKNSVA | WASTRES | NQYHRLPLS | 0.64 / 0.84 / 0.78 | 2 of 9 (4.91)
KSSQSVLYESRNKNSWA | WASTREV | QQYWRLPLS | ND / ND / ND | 1 of 9 (2.62)
KSLQSVLYESRNKNSVA | WASTGES | QQYFRLPLS | ND / ND / 4.66 | 2 of 9 (3.03)
KSSQSVLYESRNMNSVA | WISTYES | QQYHRLPLS | 4.99 / ND / 4.21 | 0 of 9
KSSQSVLYASRNKNSVA | WASTRMS | QQYHRLPCS | ND / ND / ND | 0 of 9
KSSQSVLYESRNKNQVA | RASTRES | QQYFRLPLS | -0.30 / 0.03 / -0.22 | 0 of 9
KSSQCVLYEVRNKNSVA | WASTREA | QQYHRLPLS | ND / ND / ND | 2 of 9 (3.09)
KSSQSVLYESRQKNSVA | WASTRES | QQYHRLELC | 2.54 / 2.36 / 3.31 | 1 of 9 (4.02)
KSSQSVLYESRNWNSVA | WASTRES | QQLHRLRLS | 2.15 / 1.99 / 2.17 | 3 of 9 (4.45)
KSSQSVLYEGRNKNSHA | WASTRES | QQYQRLPLS | ND / ND / ND | 2 of 9 (3.78)
KRSQKVLYESRNKNSVA | WASTRFS | QQYHRLPLS | 2.26 / 2.99 / ND | 0 of 9
KSSQSVLYESRNKKSVW | WASTRES | SQYHRLPLS | ND / ND / ND | 2 of 9 (4.04)
KSSQSVLYESSNKNSVA | WASTRES | QQYHRLPYS | ND / ND / ND | 0 of 9
KSSQSVLYCSRNKNSDA | WASTTES | QQYHRLPLS | ND / ND / ND | 0 of 9
KSSQSVGYESRNKNSVA | WASTRES | QQPHRLPLS | 1.44 / 1.48 / 1.47 | 4 of 9 (4.91)
KSTQSVLYESRNKNSVC | WASTDES | QQYHRLPLS | ND / ND / ND | 0 of 9
NSSQSVLYKSRNKNSVA | WASTRES | QQYHRLPLV | 2.90 / ND / ND | 0 of 9
KSSVSVLYESRNKNSVA | WASTRWS | QCYHRLPLS | 3.52 / 2.64 / 3.68 | 5 of 9 (4.45)
KSSQSVLYDSRNKESVA | WASIRES | QQYHRLPLS | 0.65 / 0.83 / 0.78 | 0 of 9
KSSQSVLKELRNKNSVA | WASTRES | QQHHRLPLS | 0.36 / 0.68 / 1.15 | 1 of 9 (3.23)
KSSQSVLYMSRNKNSVA | WQSVRES | QQYHRLPLS | 2.99 / 3.96 / 3.83 | 3 of 9 (4.13)
KSSQSVLYESRTKNSVA | WASTRES | QQYHSQPLS | 1.02 / 1.32 / 1.37 | 0 of 9
KSSQSVWYESRNKNSVA | WASKRES | QQYLRLPLS | ND / ND / ND | 1 of 9 (4.55)
KSSPSVLYESRNKNSVA | WASTRES | QQCHRDPLS | 0.73 / 0.78 / 0.40 | 0 of 9
KSSQSVLYEHRNKNSVA | CASTRES | IQYHRLPLS | ND / 3.86 / ND | 3 of 9 (4.00)
KSSQSVLYEWRSKNSVA | TASTRES | QQYHRLPLS | 1.46 / 1.67 / 1.74 | 1 of 9 (2.82)
KSSQSVLYESRNKNSVA | WASTLES | QQYHTLPLS | ND / ND / ND | 1 of 9 (2.83)
KSSQSVLYESRNKNSVA | WASLRES | QQYKRNPLS | ND / ND / ND | 1 of 9 (2.97)
KSSQSVLYEYRNKNSVA | WASTRES | QQYHRLPLS | ND / ND / ND | 0 of 9
KSSQSVLYESRMKNNVA | RASTRES | QQYHRLPLS | 0.84 / 0.91 / 0.85 | 2 of 9 (4.56)

The opening 3 entries, copied out:

| CDR-L1 | CDR-L2 | CDR-L3 | log10 Kd (nM) by replicate | signal with controls |
|---|---|---|---|---|
| KSSQSVQVESRNKNSVA | WASTRES | NQYHRLPLS | 0.64 / 0.84 / 0.78 | 2 of 9 (4.91) |
| KSSQSVLYESRNKNSWA | WASTREV | QQYWRLPLS | ND / ND / ND | 1 of 9 (2.62) |
| KSLQSVLYESRNKNSVA | WASTGES | QQYFRLPLS | ND / ND / 4.66 | 2 of 9 (3.03) |